# From PubChem BioAssay AID540248 (The Scripps Research Institute Molecular Screening Center, 2011)
# This is a selection; strong and weak results do not stand in their true shares. Active and inactive are the calls of the source.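 The calls were made as follows: active = mean inhibition over three repeats above a set limit taken from the earlier primary screen (cut at about 37% in these data); inactive = the rest.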
# Target: Serine protease HTRA1 (Homo sapiens) (UniProt Q92743)
# Experiment: confirming inhibition of human HTRA1 – biochemical, fluorescence polarization, confirmation (AID 540248);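 also: 0% = HTRA1 with DMSO and 100% = wells lacking HTRA1; inhibitors block probe binding so polarization drops and inhibition rises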
# Conditions: recombinant HTRA1, FP-rhodamine activity-based probe, at 5.96 µM, active compounds read high
row,Structure (SMILES),inhibition
1,C[N+]1=C2C=CC=CC=C2SC12C([N+](=O)[O-])=CC([N+](=O)[O-])=C[C-]2[N+](=O)[O-] (stereo unspecified),active: 55%
2,O=[N+]([O-])c1cc([N+](=O)[O-])c(CCNc2ccccc2)c([N+](=O)[O-])c1,inactive: 14.8%
3,CSc1ccc(Nc2c([N+](=O)[O-])cc([N+](=O)[O-])cc2[N+](=O)[O-])cc1,inactive: 28.6%
4,Nc1cccc2c([As](=O)(O)O)cccc12,inactive: 4.8%
5,Cc1ccc(NCCc2c([N+](=O)[O-])cc([N+](=O)[O-])cc2[N+](=O)[O-])cc1,inactive: 20.1%
6,CN(C)C(=O)c1cc([N+](=O)[O-])cc2c1-c1c(cc([N+](=O)[O-])cc1[N+](=O)[O-])C2=O,active: 52.4%
